Measurements reported in patent publication US11400091B2, “AXL kinase inhibitors and use of the same” (Sumitomo Pharma Oncology, Inc., priority 2018, dated 2022).

The chains behind the UniProt entries cited, without tags or fusion partners.
UniProt Q12809, whole entry: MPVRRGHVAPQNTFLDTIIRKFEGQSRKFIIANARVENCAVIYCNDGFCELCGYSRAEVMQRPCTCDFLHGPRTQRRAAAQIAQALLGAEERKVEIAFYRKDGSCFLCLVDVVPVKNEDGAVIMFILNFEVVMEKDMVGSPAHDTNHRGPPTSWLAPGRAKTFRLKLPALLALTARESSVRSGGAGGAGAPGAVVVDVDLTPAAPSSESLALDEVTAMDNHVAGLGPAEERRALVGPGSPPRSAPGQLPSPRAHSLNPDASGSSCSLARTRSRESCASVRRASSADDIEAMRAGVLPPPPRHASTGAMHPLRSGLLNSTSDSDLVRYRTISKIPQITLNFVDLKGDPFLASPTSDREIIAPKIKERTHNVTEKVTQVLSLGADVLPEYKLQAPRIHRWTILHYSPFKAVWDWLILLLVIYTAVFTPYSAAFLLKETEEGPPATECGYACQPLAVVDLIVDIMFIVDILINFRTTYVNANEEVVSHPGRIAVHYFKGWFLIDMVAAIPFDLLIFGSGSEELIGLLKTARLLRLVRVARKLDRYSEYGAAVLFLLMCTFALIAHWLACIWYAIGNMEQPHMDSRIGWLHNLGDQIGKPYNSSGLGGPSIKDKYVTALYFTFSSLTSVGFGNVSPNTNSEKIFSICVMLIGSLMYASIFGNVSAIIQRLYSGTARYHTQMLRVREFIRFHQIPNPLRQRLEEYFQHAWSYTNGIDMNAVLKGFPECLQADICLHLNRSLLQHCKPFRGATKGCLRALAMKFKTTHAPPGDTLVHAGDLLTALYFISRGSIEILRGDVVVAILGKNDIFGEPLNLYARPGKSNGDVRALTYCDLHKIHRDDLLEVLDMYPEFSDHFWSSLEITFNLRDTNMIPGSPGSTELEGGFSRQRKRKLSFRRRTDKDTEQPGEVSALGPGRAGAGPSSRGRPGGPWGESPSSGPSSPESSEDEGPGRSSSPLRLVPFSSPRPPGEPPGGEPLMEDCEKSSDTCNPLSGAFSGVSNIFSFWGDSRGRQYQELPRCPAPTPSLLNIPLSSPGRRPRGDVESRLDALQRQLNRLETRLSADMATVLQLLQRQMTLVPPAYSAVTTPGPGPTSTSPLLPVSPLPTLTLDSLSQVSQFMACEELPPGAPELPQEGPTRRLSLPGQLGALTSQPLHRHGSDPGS
UniProt P33261, whole entry: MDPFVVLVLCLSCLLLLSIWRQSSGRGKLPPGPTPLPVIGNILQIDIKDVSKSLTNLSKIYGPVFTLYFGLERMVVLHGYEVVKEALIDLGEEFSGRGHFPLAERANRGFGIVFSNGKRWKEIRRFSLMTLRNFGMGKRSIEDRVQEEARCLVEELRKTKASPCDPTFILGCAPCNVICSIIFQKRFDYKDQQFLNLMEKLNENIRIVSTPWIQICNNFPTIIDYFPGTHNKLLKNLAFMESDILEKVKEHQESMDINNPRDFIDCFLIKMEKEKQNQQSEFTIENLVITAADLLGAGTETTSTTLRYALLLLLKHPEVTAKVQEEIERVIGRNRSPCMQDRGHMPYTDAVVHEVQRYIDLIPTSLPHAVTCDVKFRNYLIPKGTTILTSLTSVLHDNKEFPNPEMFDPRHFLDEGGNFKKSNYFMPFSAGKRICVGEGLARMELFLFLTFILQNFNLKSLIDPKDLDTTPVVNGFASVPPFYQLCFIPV

Assays:
[1] = Pharmacokinetic testing of salt forms, oral dosing; assay type: in vivo, Sprague-Dawley rats; conditions: fasted male rats; PO 14.3-18.7 mg/kg (row Dose); mean; tested form: tartrate
[2] = Pharmacokinetic study free base v. tartrate salt, oral gavage; assay type: in vivo, Sprague-Dawley rats; conditions: fasted male rats; PO in 20% solutol; nominal 20 mg/kg; tested form: tartrate
[3] = tested on: 4T1 breast cancer syngraft; assay: 4T1 breast cancer syngraft, combination with PD-L1 antibody; conditions: 16 day treatment schedule, tested form: tartrate
[4] = tested on: 4T1 syngeneic (allograft) mouse model for breast cancer; assay: 4T1 syngeneic (allograft) model, combination with anti-PD-1 and radiation therapy; conditions: tested form: tartrate
[5] = tested on: iTregs; conditions: tested form: tartrate
[6] = tested on: 4T1 triple negative breast cancer mouse model; assay: ICB-resistant 4T1 syngeneic model, combination with anti-PD-1; conditions: combination with anti-PD-1 versus tartrate salt monotherapy; p<0.05; tested form: tartrate
[7] = tested on: H1650 NSCLC cell line; assay: H1650 cell viability (CellTiter-Glo); assay type: cell-based; conditions: read-out: EC50, cell viability; tested form: tartrate
[8] = tested on: Slug, E-cadherin; assay: EMT marker mRNA and protein expression in NSCLC cells; conditions: following treatment; tested form: tartrate
[9] = tested on: Phospho-AXL (Y702) in Kuramochi cells; assay: AXL phosphorylation in Kuramochi cells (western blot); assay type: cell-based; conditions: 8 hrs; tartrate salt 100 nM; Cabozantinib 1 μM; tested form: tartrate
[10] = 28-day repeated oral dose toxicity and toxicokinetic study; conditions: 28 days of repeated oral dosing; tested form: tartrate
[11] = 28-day repeated oral dose toxicity study with 14-day recovery; conditions: end of treatment, tested form: tartrate
[12] = tested on: H1650; conditions: tested form: tartrate
[13] = tested on: ES-2 cells; conditions: tested form: tartrate
[14] = tested on: ES-2 ovarian clear cell carcinoma; conditions: Example 31; day 15; vehicle 7.96 cm; p<0.05; tested form: tartrate
[15] = molecular target: hERG channel (Homo sapiens, UniProt Q12809); conditions: tested form: tartrate
[16] = molecular target: hERG in transfected HEK-293 cells (Homo sapiens, UniProt Q12809); conditions: 1 µM; tested form: tartrate
[17] = molecular target: CYP 2C19 (Homo sapiens, UniProt P33261); conditions: tested form: tartrate
[18] = tested on: Kuramochi; assay: Ovarian cancer cell line viability, dose response; conditions: read-out: IC50 Activity; tested form: tartrate
[19] = tested on: OVMANA; assay: Ovarian cancer cell line viability, dose response; conditions: read-out: IC50 Activity; tested form: tartrate
[20] = tested on: OVTOKO; assay: Ovarian cancer cell line viability, dose response; conditions: read-out: IC50 Activity; tested form: tartrate
[21] = tested on: Ovcar3; assay: Ovarian cancer cell line viability, dose response; conditions: read-out: IC50 Activity; tested form: tartrate
[22] = tested on: Ovcar8; assay: Ovarian cancer cell line viability, dose response; conditions: read-out: IC50 Activity; tested form: tartrate
[23] = tested on: Skov3; assay: Ovarian cancer cell line viability, dose response; conditions: read-out: IC50 Activity; tested form: tartrate
[24] = tested on: active DCs within tumors; assay: Active DCs in tumors by flow cytometry (CD86, CD11c); conditions: 60 mg/kg; compared to vehicle; tested form: tartrate
[25] = Single and 7-day repeated oral dose toxicity and PK study; conditions: up to 1.25 mg/kg/day oral for 7 days; tested form: tartrate

SMILES: CN1CCN(Cc2ccc(Nc3ncc(Cl)c(Nc4ccccc4S(=O)(=O)N(C)C)n3)cc2)CC1
- AUC0-24 hours [1]: 0.581 µg·h/mL
- AUC0-24 hours [2]: 0.581 µg·h/mL
- tumor growth inhibition (% TGI), combination with anti-PD-L1 ([3]; 60 mg/kg + anti-PD-L1 200 μg/mouse/dose): 87.3%
- tumor growth inhibition (% TGI), single agent ([3]; tartrate salt 60 mg/kg, anti-PD-L1 200 μg/mouse/dose): 67.1%
- tumor growth inhibition (% TGI), combination of all three ([4]; 18 day schedule, 25 mg/kg qd + anti-PD-1 10 mg/kg biw + single dose RT 12 GY): 57.7%
- tumor growth inhibition (% TGI), single agent ([4]; 18 day treatment schedule, tartrate salt 25 mg/kg qd oral, anti-PD-1 10 mg/kg biw ip): 28.4%
- EC50 [5]: 0.245 µM
- tumor growth, combination with anti-PD-1 [6]: statistically significant tumor growth inhibition versus monotherapy
- EC50 [7]: 0.039 µM
- increase of E-cadherin expression [8]: 1.6 fold
- inhibition of Slug mRNA expression [8]: ≤ 3.8 fold
- Phospho-AXL (Y702) level [9]: reduced
- No Observed Adverse Effect Level (NOAEL) [10]: 2 mg/kg/day
- small intestine mucosal injury and inflammation (minimal or mild), dogs affected ([11]; high-dose, control 1 dog): 4
- colonic mucosa injury and inflammation (minimal or mild), animals affected ([11]; high-dose): four
- thymic atrophy, animals affected ([11]; low-dose (0.1 mg/kg/day)): 1 out of 6
- thymic atrophy, animals affected ([11]; mid-dose (0.5 mg/kg/day)): 3 out of 6
- small intestine mucosal injury and inflammation (minimal or mild), dogs affected ([11]; mid-dose): 1
- tumor growth inhibition (% TGI), combination with osimertinib ([12]; 40 mg/kg + osimertinib 20 mpk, daily oral gavage): 140%
- Activity [% TGI (dose level)] ([12]; Lung cancer (H1650, combination with Erlotinib), 25 mg/kg): 139.3(25 mg/kg) %
- IC50 [13]: 0.02 µM
- abdominal circumference [14]: 6.82 cm
- IC50 [15]: > 1 µM
- inhibition [16]: > 50%
- inhibition ([17]; 10 µM): > 50%
- IC50 [17]: 4.4 µM
- IC50 [18]: < 1 µM
- IC50 [19]: < 1 µM
- IC50 [20]: < 1 µM
- IC50 [21]: < 1 µM
- IC50 [22]: < 1 µM
- IC50 [23]: 1 to 10 µM
- percent of activated DCs in tumors cells [24]: increased
- toxicity [25]: no test article treatment-related significant toxicity
